Assay: in vivo
Settings: mouse, iv

CCN(CC)C(=O)COc1cc2c(O)c3c(O)c(C)c4c(c13)C(=O)C(C)(OC=CC(OC)C(C)C(OC(C)=O)C(C)C(O)C(C)C(O)C(C)C=CC=C(C)C(=O)N2)O4 (stereo not shown) [rifamycin B diethylamide, reference compound]
LD50: 340 mg/kg
